In ChEMBL document CHEMBL1135045, “alpha(1)-Adrenoceptor antagonists. Rational design, synthesis and biological evaluation of new trazodone-like compounds” (Bioorg Med Chem Lett, 2002):

Test system: Adrenergic receptor alpha-2, Rattus norvegicus
Test: Ratio of binding affinity towards alpha-2 adrenergic receptor by displacement of [H]rauwolscine to that of displacement of [H]prazosin

Ratio | SMILES
9 | O=c1ccc(-n2ccnc2)nn1CCCN1CCN(c2ccccc2Cl)CC1
6 | COc1ccccc1N1CCN(CCCn2nc(-n3ccnc3)ccc2=O)CC1
